Measurements taken from ChEMBL document CHEMBL2375290, “Nonclassical antifolates, part 3: synthesis, biological evaluation and molecular modeling study of some new 2-heteroarylthio-quinazolin-4-ones” (Eur J Med Chem, 2013).

System: Escherichia coli

GENTAMICIN
MIC: 0.5 µg/mL
